Source: PMC4301037, “Identification and Structure–Function Analysis of Subfamily Selective G Protein-Coupled Receptor Kinase Inhibitors” (ACS Chemical Biology, 2014)

Amino acid sequences for entries named in this document (tags omitted).
UniProt P43249, whole entry: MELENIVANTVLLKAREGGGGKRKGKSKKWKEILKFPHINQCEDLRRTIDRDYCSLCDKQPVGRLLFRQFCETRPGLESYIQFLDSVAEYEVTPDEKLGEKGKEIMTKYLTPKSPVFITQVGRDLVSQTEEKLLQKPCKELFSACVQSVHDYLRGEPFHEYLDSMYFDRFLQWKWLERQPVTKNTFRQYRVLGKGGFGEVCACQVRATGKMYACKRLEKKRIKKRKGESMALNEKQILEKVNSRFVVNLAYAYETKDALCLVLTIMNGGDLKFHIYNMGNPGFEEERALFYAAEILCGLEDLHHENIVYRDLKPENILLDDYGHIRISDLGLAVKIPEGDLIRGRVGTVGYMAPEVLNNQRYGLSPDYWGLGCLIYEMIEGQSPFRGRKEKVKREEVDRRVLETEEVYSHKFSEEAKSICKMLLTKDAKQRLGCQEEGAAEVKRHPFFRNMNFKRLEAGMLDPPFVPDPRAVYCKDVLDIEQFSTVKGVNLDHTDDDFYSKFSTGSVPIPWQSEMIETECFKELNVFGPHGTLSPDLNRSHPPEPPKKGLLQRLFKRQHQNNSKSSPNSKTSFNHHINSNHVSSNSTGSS

Assays:
GRK2 = molecular target: T1, GRK2 (Bos taurus, UniProt P21146, S670A); assay: In vitro phosphorylation assay (tubulin, 5 μM ATP), GRK2; assay type: biochemical, bovine
T1 construct: made in house
T1 sequence (P21146 1-689 S670A): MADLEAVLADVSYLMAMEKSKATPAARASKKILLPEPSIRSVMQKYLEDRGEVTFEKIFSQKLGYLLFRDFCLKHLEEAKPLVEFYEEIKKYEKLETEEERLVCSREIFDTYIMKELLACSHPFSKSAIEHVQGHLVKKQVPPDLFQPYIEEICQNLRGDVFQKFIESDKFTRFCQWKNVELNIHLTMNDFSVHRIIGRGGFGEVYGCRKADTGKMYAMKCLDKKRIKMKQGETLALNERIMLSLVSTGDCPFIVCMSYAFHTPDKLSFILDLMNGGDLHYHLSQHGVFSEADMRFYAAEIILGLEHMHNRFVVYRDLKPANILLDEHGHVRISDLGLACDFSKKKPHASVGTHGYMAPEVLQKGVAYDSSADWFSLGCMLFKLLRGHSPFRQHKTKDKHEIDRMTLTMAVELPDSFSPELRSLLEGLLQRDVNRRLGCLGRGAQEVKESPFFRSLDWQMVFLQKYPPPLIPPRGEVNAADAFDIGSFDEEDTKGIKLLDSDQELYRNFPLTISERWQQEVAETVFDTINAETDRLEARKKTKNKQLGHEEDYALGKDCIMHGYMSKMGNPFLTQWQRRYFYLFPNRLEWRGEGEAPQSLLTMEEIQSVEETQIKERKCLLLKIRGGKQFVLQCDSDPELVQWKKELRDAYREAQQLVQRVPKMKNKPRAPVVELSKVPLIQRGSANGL

GRK5 = molecular target: T2, GRK5 (Bos taurus, UniProt P43249); assay: In vitro phosphorylation assay (tubulin, 5 μM ATP), GRK5; assay type: biochemical, bovine
T2 construct: when using full-length kinases as the receptor[37] instead of isolated kinase domains; made in house

IC50 (GRK2): 20 µM
IC50 (GRK5): 3.16 µM
Compound: COc1cc2c(cc1Nc1nc(Nc3ccsc3C(N)=O)c3cc[nH]c3n1)N(C(=O)CN(C)C)CCC2(C)C [GSK2163632A]
